Data: patent US8647613B2, “Drug carrier” (JCR Pharmaceuticals Co., Ltd., priority 2005, dated 2014)

Columns and labels:
[1] = Release of protein-bound transmembrane-type lipid from protein-bound liposome; type: physicochemical; conditions: protein bound via transmembrane-type lipid (11), pH 7.4, 37° C., up to 24 hours
Method: The prepared liposome having each of 5 types of protein (FITC-labeled) bound thereto was shaken at pH 7.4 at 37° C., and the fluorescence measurement of release behavior of the proteins was performed.
A dispersion of protein-bound (or protein-conjugated) liposome (PBS 10 mL, [Lipid]=0.8 g/dL, stored at 4° C.) was shaken at 37° C. 5 minutes after the start, 1 mL of control (0 min) was sampled and subjected to centrifugation (10,000 rpm, 5 min.). Then, fluorescence measurement (FITC, λex=490 nm, λem=520 nm) of the supernatant (700 μL) was performed, and the separated protein was quantified based on the calibration curve. 2, 4, 8, 12 and 24 hours later also, the same operation was performed to measure the time-dependent change of the released protein. […] The symbols in FIG. 3 represent the following: (●): α-lactalbumin; (▪): rHSA; (□): IgG; (▴): ferritin; and: (Δ): thyrogrobulin.

[2] = cited from earlier work

Substance: rHSA: model protein, 66.5 kDa
- protein stably retained on the liposome surface [1]: about 90%
- Isoelectric point ([2]; Table 2): 5.1
- Isoelectric point (-) ([2]; Table 5): 5.1
